Drawing on PubChem BioAssay AID624172 (National Center for Advancing Translational Sciences (NCATS), 2012), this text covers activation for 82 compounds.

Protein sequences, listed by entry. Tags and fused reporters are not part of them.
UniProt P43220, whole entry, looked up: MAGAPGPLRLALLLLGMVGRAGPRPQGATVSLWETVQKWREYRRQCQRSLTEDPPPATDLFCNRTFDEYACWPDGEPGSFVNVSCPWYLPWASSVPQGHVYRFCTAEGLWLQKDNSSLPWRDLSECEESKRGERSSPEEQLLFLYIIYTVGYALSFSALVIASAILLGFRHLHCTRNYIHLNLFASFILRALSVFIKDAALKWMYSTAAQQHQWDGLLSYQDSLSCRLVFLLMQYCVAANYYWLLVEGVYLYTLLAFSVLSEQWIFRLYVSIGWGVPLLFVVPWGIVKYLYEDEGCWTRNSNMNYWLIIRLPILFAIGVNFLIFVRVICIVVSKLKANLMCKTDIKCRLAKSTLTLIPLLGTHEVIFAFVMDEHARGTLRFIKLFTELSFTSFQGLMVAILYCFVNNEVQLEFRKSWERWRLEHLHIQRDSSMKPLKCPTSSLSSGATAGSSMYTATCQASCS

The entries are a selection whose mix differs from that of the whole data set. Activity calls are given as the source filed them. The call rests on the fitted dose curve; in most records, active means well fitted activation curve with a large enough effect; inconclusive means small, poorly fitted or top-dose-only effect; inactive means no such curve, though single readings can be large or run the other way.

For the assay, the target named is Glucagon-like peptide 1 receptor (Homo sapiens) (UniProt P43220). Kind of assay: qHTS of GLP-1 Receptor Agonists. Further: % of control where 0% means no effect. The note with it: HEK293 GLP-1R CRE-luciferase, luminescence, 4-6 h, cells express a hypersensitive GLP-1R form; at 45.6 µM (top of the series) unless noted. The text has this: The overall goal of this project was to develop a novel assay for discovering small molecule ligands for class B1 G protein-coupled receptors (GPCRs). Very few agonists (or inverse agonists) with generally weak activity for this entire group of physiologically important receptors are known to date. To establish proof-of-principle that this critical bottleneck can be overcome with a suitable screening approach, our studies focused on the class B1 receptor for glucagon-like peptide-1 (GLP-1R), a potential therapeutic target for diabetes and neurodegenerative disease.
The assay was developed in a "mix and measure" format using a cell-based functional readout. Toward this goal, stably transfected HEK293 cell clones were established that co-express (i) a cAMP-responsive luciferase reporter gene, and (ii) GLP-1Rs that upon ligand interaction either stimulate (agonists) or inhibit (inverse agonists) luciferase activity. In different cell lines to be used for screening, expressed GLP-1Rs are specifically optimized for high sensitivity detection of either weak agonists (hypersensitive receptor) or inverse agonists (constitutively active receptor mutant). In addition, control cell lines were developed that express either the cAMP-responsive reporter gene without recombinant GLP-1Rs (enabling initial exclusion of GLP-1R independent effects of candidate probes), or the reporter gene together with wild type GLP-1Rs (for confirmation of probe activity at this receptor), or the reporter gene in combination with the constitutively active orphan receptor GPR119 (enabling initial exclusion of GLP-1R independent inhibitory effects of candidate inverse agonists).
To that end, this assay was optimized for 1536-well format and screened against the MLSMR.
NIH Molecular Libraries Probe Production Network [MLPCN]
NIH Chemical Genomics Center [NCGC]
PI Name: Martin Beinborn, Tufts Medical Center
In a white solid 1536-well plate, 6 uL of cells are dispensed in DMEM without phenol red, 10% Nu serum, and 1% pen-strep medium. The plates are then incubated for 12 hours at 37 deg C at 5% CO2 before 23 nL of compounds are added. After a 4-6 hr incubation at37 deg C and 5% CO2, 3 uL of detection reagent are added and after a 12 min incubation at RT, a luminescent read is obtained on the ViewLux.
(In general: Quantitative high-throughput screening tests each substance at several concentrations.)
Take `CCOP1(=S)c2c(C)nn(CCC#N)c2N=C(c2ccccc2F)N1C` (configuration not stated): the activation was inactive: 2.43%.

`O=C(O)COc1ccc([As](=O)(O)O)cc1[N+](=O)[O-]`: the activation is inactive: 4.34%.

For the compound `Nc1ccccc1[As](=O)(O)c1ccccc1`, the activation is inactive: 1.04%.

`CCCOP(=S)(Nc1nc(N)cc(=O)[nH]1)OCCC`: the activation is inactive: 2.6%.

With `Cc1ccc(NCCc2c([N+](=O)[O-])cc([N+](=O)[O-])cc2[N+](=O)[O-])cc1`, the activation is inactive: -31.6%.

For the compound `Nc1cccc2c([As](=O)(O)O)cccc12`, the activation is inactive: -0.282%.

Regarding `CCOP(=O)(Nc1cccc2ccccc12)OCC`, the activation is inactive: 9.65%.

Take `COc1cc(C2NCCC3(OCCO3)C2(C)C)cc(OC)c1OC` (configuration not stated): the activation is inactive: -3.72%.

`CS(=O)(=O)c1ccc(Cl)c(NC(=O)COC(=O)C(O)(c2ccccc2)c2ccccc2)c1`: the activation was inactive: -2.14%.

Regarding `COc1cc(C(=O)NCC2(N3CCOCC3)CCCCC2)cc(Cl)c1OC(C)C`, the activation was inactive: 16.7%.

Regarding `O=[As](O)(O)c1cccnc1`, the activation is inactive: -2.34%.

Take `CN(C(=O)Cc1ccc(Cl)c(Cl)c1)[C@@H]1CC[C@]2(CCCO2)C[C@H]1N1CCCC1`: the activation is inactive: -0.656%.

For `O=C(OC1CN2CCC1CC2)c1ccc(Cl)cc1` (configuration not stated), the activation was inactive: 2.48%.

In the case of `O=[As](O)(c1cccc(O)c1)c1cccc(O)c1`, the activation is inactive: -0.427%.

As to `Cc1cccc(OCC(=O)OC2CN3CCC2CC3)c1` (configuration not stated), the activation was inactive: 0.286%.

In the case of `COc1ccccc1CNC(=O)COC(=O)C(O)(c1ccccc1)c1ccccc1`, the activation is inactive: 3.29%.

Regarding `CC1(CBr)Cn2c(nc3ccccc3c2=O)S1` (configuration not stated), the activation is inactive: -5.5%.

As for `CN(C(=O)Cc1ccc(Cl)c(Cl)c1)[C@@H]1CCCC[C@H]1N1CCCC1`, the activation was inactive: 6.66%.

As to `CC(C)/C=N\N=C(\N)N[N+](=O)[O-]`, the activation is inactive: -1.83%.

Consider `CN(CCCl)Cc1cc(Cl)c(NC2=NCCN2)c(Cl)c1`, for which the activation is inactive: 9.13%.

In the case of `CCOP(=O)(Nc1ccc(C)cn1)OCC`, the activation is inactive: -4.64%.

Turning to `CCOP(=O)(NC(=NC(C)c1ccccc1)NC(C)c1ccccc1)OCC` (configuration not stated), the activation was inactive: 2.86%.

For the compound `CCC1=CC2Cc3nc4ccc(Cl)cc4c(N)c3C(C1)C2` (configuration not stated), the activation was inactive: -0.254%.

As to `O=P1(Nc2ccccn2)COc2ccccc2OC1`, the activation is inactive: -11%.

For `CC(C)(C)C(=O)NC(Sc1ncccn1)C(Cl)(Cl)Cl` (configuration not stated), the activation was inactive: 0.503%.

Consider `Clc1n[nH]nc1-c1nn[nH][15n]1`, for which the activation was inactive: 0.341%.

`O=P1(N(CCCl)CCCl)NCCC(C(F)(F)F)O1` (configuration not stated): the activation was inactive: -1.7%.

Regarding `O=P1(Nc2ncccn2)COc2ccccc2OC1`, the activation is inactive: -10%.

In the case of `Cc1ccc(S(=O)(=O)N(CCCN)CCCc2c(C)nc(N)[nH]c2=O)cc1`, the activation is inactive: -1.37%.

Regarding `NS(=O)(=O)c1cccc(NC(=O)COC(=O)C(O)(c2ccccc2)c2ccccc2)c1`, the activation was inactive: 1.1%.

Take `O=P1(Nc2ccc(Br)cn2)COc2ccccc2OC1`: the activation is inactive: -16.3%.

Take `Cc1ccc(OCC(=O)OC2CN3CCC2CC3)cc1` (configuration not stated): the activation was inactive: 3.8%.

With `O=[As](O)(c1cccs1)c1cccs1`, the activation is inactive: -8.61%.

Consider `Nc1cccc([As](=O)(O)c2ccccc2)c1`, for which the activation was inactive: 2.11%.

`Cc1ccc(C(=O)OC2CN3CCC2CC3)cc1` (configuration not stated): the activation was inactive: 1.49%.

Regarding `CC1CCC(C(C)C)C(OP(=O)(Nc2ccccn2)c2ccccc2)C1` (configuration not stated), the activation was inactive: 1.3%.

On to `Cc1nn(-c2ccccc2)c2c1P(=O)(N1CCOCC1)N(C)C(c1ccccc1)=N2` (configuration not stated), for which the activation is inactive: 2.12%.

In the case of `CCCC1OP(=O)(Nc2ccccc2)OCC1CC` (configuration not stated), the activation was inactive: 12%.

With `O=C(/C=C/c1ccccc1)OC1CN2CCC1CC2` (configuration not stated), the activation was inactive: 10.8%.

With `CN(C)C1(CNC(=O)c2ccc(S(C)(=O)=O)cc2)CCCCC1`, the activation is inactive: -0.219%.

Take `CCOC(=O)Nc1cccc([As](=O)(O)O)c1`: the activation is inactive: 3.13%.

For the compound `O=[N+]([O-])c1ccc(Nc2ccc(Oc3ccc([N+](=O)[O-])cc3[N+](=O)[O-])cc2)c([N+](=O)[O-])c1`, the activation was inactive: 5.7%.

On to `Cc1cc(SC(NC=O)C(Cl)(Cl)Cl)ncn1` (configuration not stated), for which the activation is inactive: 1.4%.

For `O=P(Nc1ccccn1)(c1cccc2ccccc12)c1cccc2ccccc12`, the activation is inactive: 16.7%.

On to `CC1CCNP(=O)(N(CCCl)CCCl)O1` (configuration not stated), for which the activation was inactive: -8.46%.

For the compound `O=C(O)C(O)c1ccc(N(CCCl)CCCl)cc1` (configuration not stated), the activation was inactive: -1.7%.

`CCOC(=O)Nc1ccc([As](=O)(O)O)c(O)c1`: the activation was inactive: -2.46%.

Turning to `Cc1cc(SC(NC(=O)c2ccccc2)C(Cl)(Cl)Cl)nc(C(C)C)n1` (configuration not stated), the activation was inactive: 0.116%.

As for `CCCCOc1ccc(C(=O)NCC2(N3CCCCC3)CCCCC2)cc1OC`, the activation is inactive: 12.2%.

For the compound `COP(=O)(OC)N1CC1c1ccccc1` (configuration not stated), the activation is inactive: 0.905%.

Consider `CCOC(=O)c1ccc(NC(=O)C(C)(CCl)SC)cc1` (configuration not stated), for which the activation is inactive: 8.07%.

Take `CSc1ccc(Nc2c([N+](=O)[O-])cc([N+](=O)[O-])cc2[N+](=O)[O-])cc1`: the activation was inactive: -2.42%.

For the compound `O=C(OC1CN2CCC1CC2)c1cccc([N+](=O)[O-])c1` (configuration not stated), the activation was inactive: 0.633%.

As to `CCC(C)N(CC(C)C)C(=S)SC(NC(C)=O)C(Cl)(Cl)Cl` (configuration not stated), the activation was inactive: -6.82%.

In the case of `COC(=O)C1(C)COP(=O)(N2CCCC2)OC1` (configuration not stated), the activation is inactive: -4.08%.

Turning to `COP1(=S)c2c(C)nn(CCC#N)c2N=C(c2ccc(F)cc2)N1C` (configuration not stated), the activation is inactive: 18.1%.

With `O=C(Nc1ccncc1[N+](=O)[O-])c1ccc([N+](=O)[O-])cc1[N+](=O)[O-]`, the activation is inactive: -0.147%.

With `O=C(COc1ccccc1)OC1CN2CCC1CC2` (configuration not stated), the activation is inactive: -5.95%.

`O=C(O)C(=O)c1ccc(N(CCCl)CCCl)cc1`: the activation is inactive: -2.52%.

For `COc1ccc(N/C(=N/P(=O)(N2CCOCC2)N2CCOCC2)N2CCOCC2)cc1`, the activation was inactive: 0.557%.

`O=[N+]([O-])c1cc(Oc2ccc([N+](=O)[O-])cc2C(F)(F)F)cc([N+](=O)[O-])c1`: the activation is inactive: -1.59%.

For the compound `Cc1cc(=O)[nH]c(N[N+](=O)[O-])n1`, the activation was inactive: 1.6%.

For the compound `O=C(OC1CN2CCC1CC2)C12CC3CC(CC(C3)C1)C2` (configuration not stated), the activation is inactive: 18.1%.

For the compound `Cc1c2c(nc3ccccc13)SC(C(Cl)Cl)C2` (configuration not stated), the activation was inactive: 21.7%.

Turning to `COc1cc(I)ccc1[As](=O)(O)O`, the activation was inactive: 6.49%.

On to `COc1ccc2nc(NP(=O)(c3ccccc3)c3ccccc3)sc2c1`, for which the activation was inactive: 1.29%.

With `O=P1(N(CCCl)CCCl)OCCCN1CCCl` (configuration not stated), the activation is inactive: -7.04%.

Take `O=P1(N(CCCl)CCCl)Nc2ccccc2N1`: the activation is inactive: 21.2%.

`CC(C)c1ccc(OP(=O)(Nc2ccccn2)Oc2ccccc2F)cc1` (configuration not stated): the activation was inactive: 1.28%.

For `COC(=O)C1(C)COP(=O)(N2CCCCCC2)OC1` (configuration not stated), the activation is inactive: -3.19%.

For the compound `ClCCSc1nnc(-c2cccnc2)o1`, the activation was inactive: -1.07%.

Take `O=[N+]([O-])c1cc([N+](=O)[O-])c(-c2ccn[nH]2)s1`: the activation is inactive: -0.968%.

Consider `CCN(CC)C(=S)SC(NC=O)C(Cl)(Cl)Cl` (configuration not stated), for which the activation was inactive: -6.44%.

With `O=C(OC1CN2CCC1CC2)c1cccc2[nH]cnc12` (configuration not stated), the activation was inactive: 0.0994%.

Consider `CC(C)NC(=O)NP(=O)(Oc1ccccc1)Oc1ccccc1`, for which the activation is inactive: 3.6%.

For the compound `COc1cc(C(=O)NCC2(N3CCOCC3)CCCCC2)ccc1OCC(C)C`, the activation is inactive: 10.3%.

With `O=[N+]([O-])c1ccc(-c2cc([N+](=O)[O-])c(O)c([N+](=O)[O-])c2)cc1`, the activation is inactive: -1.64%.

As for `O=[As](O)(c1ccc(O)cc1)c1ccccc1O`, the activation is inactive: 5.14%.

Regarding `C[As](=O)(O)c1cccc(C(=O)O)c1`, the activation is inactive: -11.1%.

As for `Cc1ccc2nc3c(c(C)c2c1)CC(C(Cl)Cl)S3` (configuration not stated), the activation is inactive: 4.85%.

With `Cc1ccc(OP(=O)(Nc2ccc([N+](=O)[O-])cn2)Oc2ccc(C)cc2)cc1`, the activation is inactive: -4.17%.

For the compound `[N-]=[N+]=NC1CCCCC1NC(=O)c1cc([N+](=O)[O-])cc([N+](=O)[O-])c1` (configuration not stated), the activation is inactive: 3.4%.
